Results published in ChEMBL document CHEMBL5537130, “Structure-based design of potent FABP4 inhibitors with high selectivity against FABP3” (Eur J Med Chem, 2024).

Legend:
in vitro [1] = details: mouse, liver microsomes
in vitro [2] = details: human, liver microsomes
in vitro [3] = details: mouse, liver microsomes; remark: listed apart in the source
in vitro [4] = details: human, liver microsomes; remark: listed apart in the source

Question: What does the source list for Cc1cccc(Nc2cccc(Cl)c2-c2ccccc2)c1C(=O)O?
Answer: Fh at 1 h, 1 µM (in vitro [1]): 73.4%; Fh at 1 h, 1 µM (in vitro [2]): 60.6%; half-life at 1 h, 1 µM (in vitro [3]): 2.18 h; half-life at 1 h, 1 µM (in vitro [4]): 2.75 h

Question: Which results are given for Cc1cccc(Nc2cccc(Cl)c2-c2ccc3c(c2)CCO3)c1C(=O)O?
Answer: Fh at 1 h, 1 µM (in vitro [1]): 76.9%; Fh at 1 h, 1 µM (in vitro [2]): 18.1%; half-life at 1 h, 1 µM (in vitro [3]): 2.63 h; half-life at 1 h, 1 µM (in vitro [4]): 0.395 h
